This is an account of results in article PMC10899660, “Global fungal-host interactome mapping identifies host targets of candidalysin” (Nature Communications, 2024).

The subject of one data set is CCNH. As to the kind of experiment: Co-immunoprecipitation of CCNH-3×FLAG with EGFP-tagged Ece1 peptides in HEK-293T cells. The format is binding, human. To be noted: CCNH-3×FLAG and Ece1-EGFP. On the procedure: The overexpression plasmids CCNH-3×FLAG and Ece1-II-EGFP, Ece1-III-EGFP, Ece1-IV-EGFP and Ece1-V-EGFP were co-transfected into 5×10^5 HEK-293T cells by Lipofectamine™ 3000 (Thermo Scientific™, L3000001) respectively. The HEK-293T cells were lysed for 48 h in RIPA buffer (Beyotime, P0013B) and added with the Phosphatase inhibitor cocktail D (Beyotime, P1096) and Phenylmethanesulfonyl fluoride (Beyotime, ST505) for 30 minutes on ice. After microcentrifuge for 15 minutes at 4 °C, the supernatants were heated at 100 °C for 5 min as the input group. The remaining supernatants were divided into two equal group: the GFP group added with GFP (5G4) Mouse mAb (Magnetic Bead Conjugate) (Cell Signaling Technology, #67090) at 1:10 dilution, and the IgG group added with Mouse IgG (Magnetic Bead Conjugate) (Cell Signaling Technology, #5873) at 1:10 dilution. Both groups were incubated with rotation overnight at 4 °C. By using magnetic rack to pellet beads, the samples were washed and lysised for western blot assay. Primers used are as follows: Candidalysin-VN173-internal-F (5′- […]-3′) and Candidalysin-VN173-internal-R (5′- […]-3′), CCNH-VC155-internal-F (5′-[…]-3′) and CCNH-VC155-internal-R (5′-[…]-3′). […]

Data set [1] relates to FaDu cells. Briefly: Cytokine secretion (IL-6, G-CSF), FaDu cells. Format: cell-based. To be noted: 10 µM, 12 h. As for the experimental part: To examine the damage induced by candidalysin, we treated both FaDu and A549 epithelial cells with synthetic candidalysin peptide.
Supplementary Fig. 4. Candidalysin induces cell damage and production of
cytokines, related to Fig. 4.
(a) LDH release after incubation of FaDu cells with Ece1 peptides.
(b) LDH release of FaDu cells after treatment with serial dilution concentrations of
(c) IL-6 expression after incubation with 10 µM Ece1-III within 12h.
(d) G-CSF expression after incubation with 10 µM Ece1-III within 12h.
Data are presented as mean ± SEM. ns, not significant, *P < 0.05, **P < 0.01, ***P <
0.001, ****P < 0.0001 as determined by one-way ANOVA test with Tukey correction
(a, b), unpaired two-tailed Student’s t-test (c, d).
(1 picture or pasted object on this page, not shown here)

For data set [2], the system named is FaDu cells. As to the kind of experiment: Calcein/PI viability/cytotoxicity assay, FaDu cells. Format: cell-based. To be noted: 10 μM, 4 h. As for the experimental part:
CHO-K1 cells were deposited into 96-well plates and incubated at 37 °C with 5% CO2. Before the viability assay, cells were starved in serum-free F12K medium overnight. Calcein/PI Cell Viability/Cytotoxicity Assay Kit (DOJINDO, C542) was applied to determine the cell viability that were treated by candidalysin for 4 h.

A further data set has as its system A549 cells. Briefly: Western blot of CCNH and γ-H2AX, A549 and CCNH-KD A549 cells. The format is cell-based. To be noted: 4 h. As for the experimental part:
(§1) Cells were lysed with cell lysis buffer (Beyotime, #P0013) on ice for 30 min. The supernatant of cell lysate was then collected in a table-top refrigerated centrifuge at 4 °C and 14,000 × g for 10 min. Protein concentration was determined by Pierce™ BCA Protein Assay Kit (Thermo Scientific™, #23227). Antibodies against the following proteins were used for Western blotting analysis: CCNH antibody (CST,Rabbit Source, Cat#2927, 1:1000 dilution), gama-H2AX antibody (CST, Rabbit Source, Cat#97185, 1:1000 dilution), GAPDH (D16H11) XP® Rabbit mAb (CST, Rabbit Source, Cat#5174 S, 1:1000 dilution), Anti-CDK2 (phospho T160) + CDK1 (phospho T161) antibody (Abcam, Rabbit Source, Cat#EPR17621, 1:1000 dilution), Anti-rabbit IgG, HRP-linked Antibody (CST, Goat Source, Cat#7074, 1:5000 dilution), […] Tag (D6W5B) Rabbit mAb (CST, Rabbit Source, Cat#14793, 1:1000 dilution), GFP (4B10) Mouse mAb (CST, Mouse Source, Cat #2955, 1:1000 dilution), Anti-mouse IgG,HRP-linked antibody (CST, Goat Source, Cat#7076, 1:5000 dilution). Membranes were treated with SuperSignal™ West Pico PLUS Chemiluminescent Substrate (Thermo Scientific™, #34577) prior to visualization in the Chemiluminescence Imaging Analysis System (BG-gdsAUTO720, Baygene). GAPDH was used as the loading control.

Data set [3] relates to FaDu cells. As to the kind of experiment: Co-culture of FaDu cells with C. albicans strains, western blot of CCNH, γ-H2AX and phosphorylated CDK1/2. The format is cell-based. To be noted: FaDu co-cultured with C. albicans strains. On the procedure: as §1, with “Membranes were treated with SuperSignal™ West Pico PLUS Chemiluminescent Substrate (Thermo Scientific™, #34577) prior to visualization in the Chemiluminescence Imaging Analysis System (BG-gdsAUTO720, Baygene). GAPDH was used as the loading control.” left out
The wild type (SC5314), ece1Δ/Δ, ece1Δ/Δ+ECE1 and ece1Δ/Δ+ECE1^Δ184-279 C. albicans cells were individually inoculated into YPD broth and grown overnight at 30 °C and were harvested and washed three times with PBS, then counted using a hemocytometer. […]
A general note: A western blot detects proteins with antibodies after separation by electrophoresis.

The subject of a further data set is BALB/c mice. Briefly: Buried food-seeking test (latency to retrieve food). The format is in vivo. On the procedure: Buried food-seeking test was performed on the Day 0 before infection and on the Day 5. Foods were buried completely by litter in the upper left corner of the cage box (16 × 30 cm), and the mice began the exploration from the diagonal position of the cage box. The total time spent for locating and retrieving foods (latency to retrieve food) by each mouse was recorded (more than 10 min was recorded as a failed search). And then the video of each mouse retrieving the food was analyzed using VisuTrack Animal behavior analysis system (XinRuan Co. Ltd, Shanghai) for plotting the track and heatmap.

In the next data set the test system is epithelial cells. To be noted: ref [18],[19]; cited from earlier work. From the text: Candidalysin plays a vital role in fungal infection. […] But the direct human target of candidalysin remains unknown, which requires an overall understanding of the interactome between candidalysin and host. In this study, we performed a high-throughput enhanced yeast two-hybrid (HT-eY2H) ass ...

With `CC[C@H](C)[C@H](NC(=O)CNC(=O)[C@H](CCSC)NC(=O)[C@@H](NC(=O)[C@@H](NC(=O)CNC(=O)[C@@H](NC(=O)[C@@H](NC(=O)[C@@H](N)CO)[C@@H](C)CC)[C@@H](C)CC)[C@@H](C)CC)[C@@H](C)CC)C(=O)N[C@@H](CC(C)C)C(=O)NCC(=O)N[C@@H](CC(N)=O)C(=O)N[C@H](C(=O)N1CCC[C@H]1C(=O)N[C@@H](CCC(N)=O)C(=O)N[C@H](C(=O)N[C@H](C(=O)N[C@@H](CCC(N)=O)C(=O)N[C@H](C(=O)N[C@H](C(=O)N[C@@H](CCSC)C(=O)N[C@@H](CO)C(=O)N[C@H](C(=O)N[C@H](C(=O)N[C@@H](CCCCN)C(=O)N[C@@H](C)C(=O)N[C@@H](Cc1ccccc1)C(=O)N[C@@H](CCCCN)C(=O)NCC(=O)N[C@@H](CC(N)=O)C(=O)N[C@@H](CCCCN)C(=O)O)C(C)C)[C@@H](C)CC)[C@@H](C)CC)[C@@H](C)CC)[C@@H](C)CC)C(C)C)[C@@H](C)CC` [Ece1-III], in the data set with CCNH, the “interaction with CCNH by Co-IP” value is “direct interaction”. Moreover, in the data set on FaDu cells [1], the G-CSF secretion result is “induced the secretion”. In addition, the IL-6 secretion entry with FaDu cells [1] is “induced the secretion”. For the same molecule, the toxicity result with FaDu cells [2] is recorded as “non-toxic”. Also, in the data set on A549 cells (A549, 10 μM), the “CCNH and γ-H2AX expression” value is “prominently elevated CCNH and γ-H2AX expression”. For the same molecule, the “γ-H2AX expression in CCNH knocked down cells” value with A549 cells (CCNH-KD A549, 10 μM candidalysin) was “maintained at low levels”. The “phosphorylation of CDK1/2 (substrate of CAK complex)” value in the data set on FaDu cells [3] is “increasing level of phosphorylated CDK1/2”. Also, the “Latency to retrieve food” value in the data set on BALB/c mice (Day 0 (Before infection), replicate 1) was found to be 220.46 s; in the data set on BALB/c mice (Day 0 (Before infection), replicate 2), 258.4 s; in the data set with BALB/c mice (Day 0 (Before infection), replicate 3), 285.22 s; in the data set with BALB/c mice (Day 0 (Before infection), replicate 4) it was 511.04 s; in the data set with BALB/c mice (Day 5 (Post infection), replicate 1) it was 531.34 s; in the data set on BALB/c mice (Day 5 (Post infection), replicate 2) it was 599.98 s. The “Latency to retrieve food” value in the data set on BALB/c mice (Day 5 (Post infection), replicate 3) is listed as 599.98 s; with BALB/c mice (Day 5 (Post infection), replicate 4), 595.54 s; with BALB/c mice (mice, before and after candidalysin or PBS), “longer latency to retrieve food”. Also, the “cell damage and epithelial immunity” value in the data set on epithelial cells is “cell damage, calcium influx, membrane destabilization via membrane intercalation, permeabilization and pore formation”.
